Earlier results in paper PMC6287576 (International Journal for Parasitology: Drugs and Drug …, 2018).

Biological target: P. equorum morantel heteromeric receptor made of the ACR-26 and ACR-27 subunits
Conditions: ACR-26/ACR-27 receptor; ref Courtot et al., 2015; cited from earlier work

CC(=O)OCC[N+](C)(C)C [Acetylcholine, Acetylcholine chloride]
EC50: 34.9 ± 1.1 µM
